Measurements taken from patent publication US20250084183A1, “ENGINEERED COMPOSITIONS FOR BONE-TARGETED THERAPY” (William Marsh Rice University, priority 2021, published 2025).
“Also recorded” adds a separate entry of the source.

Tests used:
[1] = HA binding assay; details: for Percentage of the bound fraction: antibodies 1 mg/ml, 20 mg/ml hydroxyapatite, 37° C., 9 h, mean ± SEM
[2] = tested on: MDA-MB-361 breast cancer cells; test: MDA-MB-361 bone metastasis xenograft model (para-tibial injection); details: for delay in tumor growth: 1 mg/kg retro-orbital twice a week; for Osteoclast number, significance vs Control / Osteoclast number, significance vs Tras: TRAP-stained tibia sections; for Osteoclast number, significance vs Control / Osteoclast number, significance vs Tras / Serum Calcium, significance vs Control / Serum Calcium, significance vs Tras / Serum TRACP 5b, significance vs Control / Serum TRACP 5b, significance vs Tras: end of experiment; for Osteoclast number, significance vs Control / Osteoclast number, significance vs Tras / Serum Calcium, significance vs Control / Serum Calcium, significance vs Tras / Serum TRACP 5b, significance vs Control / Serum TRACP 5b, significance vs Tras / Trabecular bone parameters BMD, significance vs Control / Trabecular bone parameters BMD, significance vs Tras / Trabecular bone parameters BS/BV, significance vs Control / Trabecular bone parameters BS/BV, significance vs Tras / Trabecular bone parameters BV, significance vs Control / Trabecular bone parameters BV, significance vs Tras / Trabecular bone parameters BV/TV, significance vs Control / Trabecular bone parameters BV/TV, significance vs Tras / Trabecular bone parameters Tb. Th, significance vs Control / Trabecular bone parameters Tb. Th, significance vs Tras: one-way ANOVA; for Survival, significance vs Control: endpoint BLI intensity over 10^7, log-rank test; for Trabecular bone parameters BMD, significance vs Control / Trabecular bone parameters BMD, significance vs Tras / Trabecular bone parameters BS/BV, significance vs Control / Trabecular bone parameters BS/BV, significance vs Tras / Trabecular bone parameters BV, significance vs Control / Trabecular bone parameters BV, significance vs Tras / Trabecular bone parameters BV/TV, significance vs Control / Trabecular bone parameters BV/TV, significance vs Tras / Trabecular bone parameters Tb. Th, significance vs Control / Trabecular bone parameters Tb. Th, significance vs Tras: microCT, Tukey; for BLI Progression, significance vs Control / BLI Progression, significance vs Tras: whole body BLI over the course of the experiment, two-way ANOVA
[3] = tested on: SK-BR-3 cells; test: In vitro cytotoxicity (MTT) against SK-BR-3; format: cell-based
Experimental: BT474, and MDA-MB-468 cells at 2×10^3 cells/well into 96-well plates. […] 20 AL of 3-(4,5-dimethylthiazol-2-yl)-2,5-diphenyltetrazolium bromide (MTT) solution (5 mg/mL) was then added to each well and incubated for another 4 h. Medium was aspirated and 150 AL DMSO was added to each well. The absorbance at 565 nm was measured by microplate reader (Infinite M Plex by Tecan) to quantify living cells.

[4] = tested on: MDA-MB-361 cells; test: Primary tumor model, MDA-MB-361 in mammary fat pads; format: in vivo, nude mice; details: 1 mg/kg
[5] = tested on: MCF-7 breast cancer cells; test: MCF-7 bone metastasis model
[6] = Biodistribution of Cy7.5-labeled antibodies in mice bearing MDA-MB-361 tumors; format: in vivo, athymic nude mice; details: 72 h and 120 h after retro-orbital injection, sulfo-Cy7.5 label
Experimental: In vivo Distribution of Bone-Targeting Antibodies. […] 72 h and 120 h after antibody infusion, the major organs were collected and imaged for antibody distribution. […] Moreover, larger quantities of bone-targeting antibodies were present in tumor-bearing right leg bones compared to left healthy bone, likely due to L-Asp6 peptide-mediated targeting to the bone resorption niche. […] This effect has the potential to enhance antitumor activity at the tumor site, while at the same time decreasing systemic toxicity.
Biodistribution. Female athymic nude mice were injected para-tibia with MDA-MB-361 cells (2× 10^5 cells/animal). […] After 72 h and 120 h injection, the mice were imaged using IVIS. 72 h and 120 h injection, the mice were killed, and major organs including heart, liver, spleen, kidney, lung, and bone tumor tissue were removed. The fluorescence intensity in organs and tumor bearing tibiae were observed using IVIS.

[7] = 1 mg/kg twice a week for two months

Tras-CH1/CT: trastuzumab with two L-Asp6 peptides, heavy chain CH1 and C-terminus; SEQ ID NOs: 13-14
Percentage of the bound fraction [1]: 81.1 ± 3.1% | delay in tumor growth [2]: 35.8 days | rate of survival ([2]; 1 mg/kg twice a week, FIG. 3D): 62.5% | increase in tumor size (BLI signal day 1 to 80) ([2]; 1 mg/kg twice a week, p<0.0001 Tras-CH1/CT vs Tras): 9.3±4.2 | tumor growth vs 10 mg/kg of Tras ([2]; 10 mg/kg every 2 weeks): statistically significant growth inhibition | histological analysis of bone sections (H&E) ([2]; FIG. 3L): reduced tumor growth and relatively normal bone morphology | bone destruction by hypercalcemia and TRACP 5b protein levels in the serum ([2]; FIG. 33): better therapeutic effects; also recorded: lowest level of bone destruction | number of HER2-positive cells in bone niches vs Tras treatment ([2]; HER2 staining): significantly reduced | number of osteoclasts in bone niches vs Tras treatment ([2]; TRAP staining): significantly reduced | Osteoclast number, significance vs Control [2]: **** (**** P < 0.0001) | Osteoclast number, significance vs Tras [2]: *** (*** P < 0.001) | Serum Calcium, significance vs Control [2]: * (* P < 0.05) | Serum Calcium, significance vs Tras [2]: ns (ns represents P > 0.05) | Serum TRACP 5b, significance vs Control [2]: ** (** P < 0.01) | Serum TRACP 5b, significance vs Tras [2]: ns (ns represents P > 0.05) | Survival, significance vs Control [2]: *** (*** P < 0.001) | frequency of secondary metastasis ([2]; ex vivo BLI, 81 days after initiation of treatment): significantly reduced the frequency of secondary metastasis to the contralateral hind limb (left hindlimb bone), heart, and liver | ex vivo BLI intensities / metastatic signals of secondary metastases ([2]; ex vivo BLI, day 81, vs unmodified Tras): the metastatic signals from the lung and liver were significantly decreased | bone mineral density (BMD) vs PBS- and Tras-treated groups ([2]; micro-CT, day 81): greater | bone volume (BV) vs PBS- and Tras-treated groups ([2]; micro-CT, day 81): greater | trabecular bone thickness (Tb.Th) vs PBS- and Tras-treated groups ([2]; micro-CT, day 81): thicker | Trabecular bone parameters BMD, significance vs Control [2]: ** (**P < 0.001) | Trabecular bone parameters BMD, significance vs Tras [2]: *** (***P < 0.001) | Trabecular bone parameters BS/BV, significance vs Control [2]: ** (**P < 0.001) | Trabecular bone parameters BS/BV, significance vs Tras [2]: * (*P < 0.05) | Trabecular bone parameters BV, significance vs Control [2]: **** (****P < 0.0001) | Trabecular bone parameters BV, significance vs Tras [2]: *** (***P < 0.001) | Trabecular bone parameters BV/TV, significance vs Control [2]: ** (**P < 0.001) | Trabecular bone parameters BV/TV, significance vs Tras [2]: * (*P < 0.05) | Trabecular bone parameters Tb. Th, significance vs Control [2]: ** (**P < 0.001) | Trabecular bone parameters Tb. Th, significance vs Tras [2]: * (*P < 0.05) | Survival, significance vs Tras ([2]; mouse, in vivo): * (key: **** P < 0.0001; *** P < 0.001; ** P < 0.01; * P < 0.05; ns represents P > 0.05) | overall survival vs 10 mg/kg of Tras ([2]; mouse, in vivo): prolonged overall survival | BLI Progression, significance vs Control [2]: **** (**** P < 0.0001) | BLI Progression, significance vs Tras [2]: ** (** P < 0.01) | EC50 [3]: 13.1 ± 12.1 nM | tumor growth in the mammary fat pads [4]: significantly decreased the tumor growth | tumor size, difference between Tras and Tras-CH1/CT treatments ([4]; FIG. 45C): no statistical differences in tumor size between two treatments | metastatic burden vs Tras-treated group [5, 7]: significant reduction in metastatic burden | mouse survival vs Tras-treated group [5, 7]: increase of mouse survival | weight change ([5]; FIG. 36E): did not alter additional weight change | intensity of the interosseous fluorescence signal vs Tras injected mice [6]: stronger

Tras-CH1: trastuzumab with L-Asp6 peptide inserted in heavy chain (CH1, A165); SEQ ID NOs: 5-6
Percentage of the bound fraction [1]: 63.9 ± 1.2%

Tras-CT: trastuzumab with L-Asp6 peptide at C-terminus (CT, G449); SEQ ID NOs: 7-8
HA binding capacity, rank among the three species containing single L-Asp6 peptides [1]: highest HA binding capacity | Percentage of the bound fraction [1]: 71.9 ± 2.5% | delay in tumor growth [2]: 27.5 days | Osteoclast number, significance vs Control [2]: **** (**** P < 0.0001) | Osteoclast number, significance vs Tras [2]: ns (ns represents P > 0.05) | Serum Calcium, significance vs Control [2]: ns (ns represents P > 0.05) | Serum Calcium, significance vs Tras [2]: ns (ns represents P > 0.05) | Serum TRACP 5b, significance vs Control [2]: * (* P < 0.05) | Serum TRACP 5b, significance vs Tras [2]: ns (ns represents P > 0.05) | Survival, significance vs Control [2]: ** (** P < 0.01) | Trabecular bone parameters BMD, significance vs Control [2]: * (*P < 0.05) | Trabecular bone parameters BMD, significance vs Tras [2]: ** (**P < 0.001) | Trabecular bone parameters BS/BV, significance vs Control [2]: ns (ns represents P > 0.05) | Trabecular bone parameters BS/BV, significance vs Tras [2]: ns (ns represents P > 0.05) | Trabecular bone parameters BV, significance vs Control [2]: ** (**P < 0.001) | Trabecular bone parameters BV, significance vs Tras [2]: ns (ns represents P > 0.05) | Trabecular bone parameters BV/TV, significance vs Control [2]: ns (ns represents P > 0.05) | Trabecular bone parameters BV/TV, significance vs Tras [2]: ns (ns represents P > 0.05) | Trabecular bone parameters Tb. Th, significance vs Control [2]: ** (**P < 0.001) | Trabecular bone parameters Tb. Th, significance vs Tras [2]: ns (ns represents P > 0.05) | Survival, significance vs Tras ([2]; mouse, in vivo): ns (key: **** P < 0.0001; *** P < 0.001; ** P < 0.01; * P < 0.05; ns represents P > 0.05) | BLI Progression, significance vs Control [2]: **** (**** P < 0.0001) | BLI Progression, significance vs Tras [2]: ns (ns represents P > 0.05) | EC50 [3]: 5.97 ± 5.64 nM | intensity of the interosseous fluorescence signal vs Tras injected mice [6]: stronger

Tras-LC/CH1/CT: trastuzumab with three L-Asp6 peptide sequences (LC, CH1, CT); SEQ ID NOs: 15-16
Percentage of the bound fraction [1]: 80.3 ± 1.1% | delay in tumor growth [2]: 18.9 days | Osteoclast number, significance vs Control [2]: **** (**** P < 0.0001) | Osteoclast number, significance vs Tras [2]: ns (ns represents P > 0.05) | Serum Calcium, significance vs Control [2]: ns (ns represents P > 0.05) | Serum Calcium, significance vs Tras [2]: ns (ns represents P > 0.05) | Serum TRACP 5b, significance vs Control [2]: * (* P < 0.05) | Serum TRACP 5b, significance vs Tras [2]: ns (ns represents P > 0.05) | Survival, significance vs Control [2]: * (* P < 0.05) | Trabecular bone parameters BMD, significance vs Control [2]: ns (ns represents P > 0.05) | Trabecular bone parameters BMD, significance vs Tras [2]: * (*P < 0.05) | Trabecular bone parameters BS/BV, significance vs Control [2]: ns (ns represents P > 0.05) | Trabecular bone parameters BS/BV, significance vs Tras [2]: ns (ns represents P > 0.05) | Trabecular bone parameters BV, significance vs Control [2]: ** (**P < 0.001) | Trabecular bone parameters BV, significance vs Tras [2]: * (*P < 0.05) | Trabecular bone parameters BV/TV, significance vs Control [2]: * (*P < 0.05) | Trabecular bone parameters BV/TV, significance vs Tras [2]: ns (ns represents P > 0.05) | Trabecular bone parameters Tb. Th, significance vs Control [2]: ** (**P < 0.001) | Trabecular bone parameters Tb. Th, significance vs Tras [2]: ns (ns represents P > 0.05) | Survival, significance vs Tras ([2]; mouse, in vivo): ns (key: **** P < 0.0001; *** P < 0.001; ** P < 0.01; * P < 0.05; ns represents P > 0.05) | BLI Progression, significance vs Control [2]: **** (**** P < 0.0001) | BLI Progression, significance vs Tras [2]: ns (ns represents P > 0.05) | EC50 [3]: 21.1 ± 20.2 nM | intensity of the interosseous fluorescence signal vs Tras injected mice [6]: stronger

Tras-LC: trastuzumab with L-Asp6 peptide inserted in light chain (LC, A153); SEQ ID NOs: 3-4
Percentage of the bound fraction [1]: 68.3 ± 4.6%
